Laboratory results from patent US20260382731A1, “BCL-2/BCL-XL PROTEIN DEGRADER AND USE THEREOF” (published 2026).

tested on: MOLT-4 cells; assay: Cell viability assay, MOLT-4 (CellTiter-Glo, 72 h); conditions: read-out: MOLT4 Cell viability IC50
Description: Human T-ALL cell MOLT-4 or SCLC NCI-H146 was cultured using standard cell culture conditions in RPMI-1640 supplemented with 10% FBS in humidified incubator at 37 °C, 5% CO2. To assess the effect of BCL-XL PROTAC degraders on cell viability, exponentially growing cells were seeded at a density of 10,000 cells/well in 96-well plates. After cell seeding, serially-diluted compound or DMSO was added to the cells (in concentration ranging from 0 to 10 uM, 3* dilution series), and plates were incubated for 72 hours. Cell viability was measured using a CellTiter-Glo Luminescent Cell Viability Assay kit (Promega) according to the manufacturer's protocol. The luminescence signal of treated cells was normalized to DMSO control. The dose response curves and IC50 values were generated using Prism.

| IC50 [nM] | Compound |
| --- | --- |
| 74 | CCn1c(C)c(S(C)(=O)=O)c(-c2cc(F)cc(N3CCN(c4ccc(NS(=O)(=O)c5ccc(N[C@H](CCN6CCN(C(=O)C7CC8(C7)CN(CC(=O)N[C@H](C(=O)N7C[C@H](O)C[C@H]7C(=O)N[C@@H](C)c7ccc(-c9scnc9C)cc7)C(C)(C)C)C8)CC6)CSc6ccccc6)c(S(=O)(=O)C(F)(F)F)c5)cc4)CC3)c2)c1-c1ccc(F)cc1 |
| 54 | CCn1c(C)c(S(C)(=O)=O)c(-c2cc(F)cc(N3CCN(c4ccc(NS(=O)(=O)c5ccc(N[C@H](CCN6CCN(C(=O)CCCCOC(=O)N[C@H](C(=O)N7C[C@H](O)C[C@H]7C(=O)N[C@@H](C)c7ccc(-c8scnc8C)cc7)C(C)(C)C)CC6)CSc6ccccc6)c(S(=O)(=O)C(F)(F)F)c5)cc4)CC3)c2)c1-c1ccc(F)cc1 |
| 62 | CCn1c(C)c(S(C)(=O)=O)c(-c2cc(F)cc(N3CCN(c4ccc(NS(=O)(=O)c5ccc(N[C@H](CCN6CCC(NC(=O)NCCCCCC(=O)N[C@H](C(=O)N7C[C@H](O)C[C@H]7C(=O)N[C@@H](C)c7ccc(-c8scnc8C)cc7)C(C)(C)C)CC6)CSc6ccccc6)c(S(=O)(=O)C(F)(F)F)c5)cc4)CC3)c2)c1-c1ccc(F)cc1 |
| 13 | CCn1c(C)c(S(=O)(=O)N2CCN(C)CC2)c(-c2cc(F)cc(N3CCN(c4ccc(NS(=O)(=O)c5ccc(N[C@H](CCN6CCN(C(=O)CCCCCC(=O)N[C@H](C(=O)N7C[C@H](O)C[C@H]7C(=O)N[C@@H](C)c7ccc(-c8scnc8C)cc7)C(C)(C)C)CC6)CSc6ccccc6)c(S(=O)(=O)C(F)(F)F)c5)cc4)CC3)c2)c1-c1ccc(F)cc1 |
| 220 | Cc1ncsc1-c1ccc([C@H](C)NC(=O)[C@@H]2C[C@@H](O)CN2C(=O)[C@@H](NC(=O)CCCCCC(=O)N2CCN(CC[C@H](CSc3ccccc3)Nc3ccc(S(=O)(=O)Nc4ccc(N5CCN(c6cc(F)cc(-c7c(C(=O)N8CC[C@H](O)C8)c(C)n(CC(F)(F)F)c7-c7ccc(F)cc7)c6)CC5)cc4)cc3S(=O)(=O)C(F)(F)F)CC2)C(C)(C)C)cc1 |
| 10 | CCn1c(C)c(S(C)(=O)=O)c(-c2cc(F)cc(N3CCN(C4CCC(NS(=O)(=O)c5ccc(N[C@H](CCN6CCCN(C(=O)CCCCCC(=O)N[C@H](C(=O)N7C[C@H](O)C[C@H]7C(=O)N[C@@H](C)c7ccc(-c8scnc8C)cc7)C(C)(C)C)CC6)CSc6ccccc6)c(S(=O)(=O)C(F)(F)F)c5)CC4)CC3)c2)c1-c1ccc(F)cc1 (stereo partly shown) |
| 36 | CCn1c(C)c(S(=O)(=O)NCC2CCOCC2)c(-c2cc(F)cc(N3CCN(c4ccc(NS(=O)(=O)c5ccc(N[C@H](CCN6CCN(C(=O)CCCCCC(=O)N[C@H](C(=O)N7C[C@H](O)C[C@H]7C(=O)N[C@@H](C)c7ccc(-c8scnc8C)cc7)C(C)(C)C)CC6)CSc6ccccc6)c(S(=O)(=O)C(F)(F)F)c5)cc4)CC3)c2)c1-c1ccc(F)cc1 |
| 6 | CCn1c(C)c(S(C)(=O)=O)c(-c2cc(F)cc(N3CCN(c4ccc(NS(=O)(=O)c5ccc(N[C@H](CCN6CCN(CCCCCC(=O)N[C@H](C(=O)N7C[C@H](O)C[C@H]7C(=O)N[C@@H](C)c7ccc(-c8scnc8C)cc7)C(C)(C)C)CC6)CSc6ccccc6)c(S(=O)(=O)C(F)(F)F)c5)cc4)CC3)c2)c1-c1ccc(Cl)cc1 |
| 40 | CCn1c(C)c(C(=O)N2CC[C@@H](OC)C2)c(-c2cc(F)cc(N3CCN(c4ccc(NS(=O)(=O)c5ccc(N[C@H](CCN6CCN(C(=O)CCCCCC(=O)N[C@H](C(=O)N7C[C@H](O)C[C@H]7C(=O)N[C@@H](C)c7ccc(-c8scnc8C)cc7)C(C)(C)C)CC6)CSc6ccccc6)c(S(=O)(=O)C(F)(F)F)c5)cc4)CC3)c2)c1-c1ccc(F)cc1 |
| 20 | CCn1c(C)c(C(=O)N2CCOCC2)c(-c2cc(F)cc(N3CCN(c4ccc(NS(=O)(=O)c5ccc(N[C@H](CCN6CCN(CCCCCCC(=O)N[C@H](C(=O)N7C[C@H](O)C[C@H]7C(=O)N[C@@H](C)c7ccc(-c8scnc8C)cc7)C(C)(C)C)CC6)CSc6ccccc6)c(S(=O)(=O)C(F)(F)F)c5)cc4)CC3)c2)c1-c1ccc(F)cc1 |
| 19 | CCn1c(C)c(S(=O)(=O)N2C[C@H](O)[C@@H](F)C2)c(-c2cc(F)cc(N3CCN(c4ccc(NS(=O)(=O)c5ccc(N[C@H](CCN6CCN(C(=O)CCCCCC(=O)N[C@H](C(=O)N7C[C@H](O)C[C@H]7C(=O)N[C@@H](C)c7ccc(-c8scnc8C)cc7)C(C)(C)C)CC6)CSc6ccccc6)c(S(=O)(=O)C(F)(F)F)c5)cc4)CC3)c2)c1-c1ccc(F)cc1 |
| 39 | CCn1c(C)c(C(=O)N2CCOCC2)c(-c2cc(F)cc(N3CCN(c4ccc(NS(=O)(=O)c5ccc(N[C@H](CCN6CCN(C(=O)CCCCCC(=O)N[C@H](C(=O)N7C[C@H](O)C[C@H]7C(=O)N[C@@H](C)c7ccc(-c8scnc8C)cc7)C(C)(C)C)CC6)CSc6ccccc6)c(S(=O)(=O)C(F)(F)F)c5)cc4)CC3)c2)c1-c1ccc(Cl)cc1 |
| 72 | CCn1c(C)c(C(=O)N2CC[C@@](C)(O)C2)c(-c2cc(F)cc(N3CCN(c4ccc(NS(=O)(=O)c5ccc(N[C@H](CCN6CCN(C(=O)CCCCCC(=O)N[C@H](C(=O)N7C[C@H](O)C[C@H]7C(=O)N[C@@H](C)c7ccc(-c8scnc8C)cc7)C(C)(C)C)CC6)CSc6ccccc6)c(S(=O)(=O)C(F)(F)F)c5)cc4)CC3)c2)c1-c1ccc(F)cc1 |
| 58 | CCn1c(C)c(S(C)(=O)=O)c(-c2cc(F)cc(N3CCN(c4ccc(NS(=O)(=O)c5ccc(N[C@H](CCN6CCN(C(=O)CCCCC(=O)N[C@H](C(=O)N7C[C@H](O)C[C@H]7C(=O)N[C@@H](C)c7ccc(-c8scnc8C)cc7)C(C)(C)C)CC6)CSc6ccccc6)c(S(=O)(=O)C(F)(F)F)c5)cc4)CC3)c2)c1-c1ccc(F)cc1 |
| 15 | CCn1c(C)c(S(C)(=O)=O)c(-c2cc(F)cc(N3CCN(c4ccc(NS(=O)(=O)c5ccc(N[C@H](CCN6CCN(CCCCCC(=O)N[C@H](C(=O)N7C[C@H](O)C[C@H]7C(=O)NC7(c8ccc(-c9scnc9C)cc8)CCC7)C(C)(C)C)CC6)CSc6ccccc6)c(S(=O)(=O)C(F)(F)F)c5)cc4)CC3)c2)c1-c1ccc(F)cc1 |
| 110 | CCn1c(C)c(C(=O)N2CC[C@H](F)C2)c(-c2cc(F)cc(N3CCN(c4ccc(NS(=O)(=O)c5ccc(N[C@H](CCN6CCN(C(=O)CCCCCC(=O)N[C@H](C(=O)N7C[C@H](O)C[C@H]7C(=O)N[C@@H](C)c7ccc(-c8scnc8C)cc7)C(C)(C)C)CC6)CSc6ccccc6)c(S(=O)(=O)C(F)(F)F)c5)cc4)CC3)c2)c1-c1ccc(F)cc1 |
| 8 | CCn1c(C)c(S(C)(=O)=O)c(-c2cc(F)cc(N3CCN(c4ccc(NS(=O)(=O)c5ccc(N[C@H](CCN6CCN(CCCCCCC(=O)N[C@H](C(=O)N7C[C@H](O)C[C@H]7C(=O)N[C@@H](C)c7ccc(-c8scnc8C)cc7)C(C)(C)C)CC6)CSc6ccccc6)c(S(=O)(=O)C(F)(F)F)c5)cc4)CC3)c2)c1-c1ccccc1 |
| 196 | CCn1c(C)c(S(C)(=O)=O)c(-c2cc(F)cc(N3CCN(c4cnc(NS(=O)(=O)c5ccc(N[C@H](CCN6CCN(C7CCN(CCOc8cc([C@@H](C(=O)N9C[C@H](O)C[C@H]9C(=O)N[C@@H](CO)c9ccc(-c%10scnc%10C)cc9)C(C)C)on8)CC7)CC6)CSc6ccccc6)c(S(=O)(=O)C(F)(F)F)c5)cn4)CC3)c2)c1-c1ccc(F)cc1 |
| 44 | CCn1c(C)c(S(C)(=O)=O)c(-c2cc(F)cc(N3CCN(c4ccc(NS(=O)(=O)c5ccc(N[C@H](CCN6CCN(C(=O)CCCCCC(=O)N[C@H](C(=O)N7C[C@H](O)C[C@H]7C(=O)NC7(c8ccc(-c9scnc9C)cc8)CC7)C(C)(C)C)CC6)CSc6ccccc6)c(S(=O)(=O)C(F)(F)F)c5)cc4)CC3)c2)c1-c1ccc(Cl)cc1 |
| 82 | Cc1ncsc1-c1ccc([C@H](C)NC(=O)[C@@H]2C[C@@H](O)CN2C(=O)[C@@H](NC(=O)CCCCCC(=O)N2CCN(CC[C@H](CSc3ccccc3)Nc3ccc(S(=O)(=O)Nc4ccc(N5CCN(c6cc(F)cc(-c7c(C(=O)NCCC8CCOCC8)c(C)n(C(C)C)c7-c7ccc(Cl)cc7)c6)CC5)cc4)cc3S(=O)(=O)C(F)(F)F)CC2)C(C)(C)C)cc1 |
| 19 | CCn1c(C)c(C(=O)N2CCC(S(C)(=O)=O)C2)c(-c2cc(F)cc(N3CCN(c4ccc(NS(=O)(=O)c5ccc(N[C@H](CCN6CCN(C(=O)CCCCCC(=O)N[C@H](C(=O)N7C[C@H](O)C[C@H]7C(=O)N[C@@H](C)c7ccc(-c8scnc8C)cc7)C(C)(C)C)CC6)CSc6ccccc6)c(S(=O)(=O)C(F)(F)F)c5)cc4)CC3)c2)c1-c1ccc(F)cc1 (stereo partly shown) |
| 595 | CCn1c(C)c(S(C)(=O)=O)c(-c2cc(F)cc(N3CCN([C@H]4CC[C@H](NS(=O)(=O)c5ccc(N[C@H](CCN6CCN(C7CCN(CCOc8cc([C@@H](C(=O)N9C[C@H](O)C[C@H]9C(=O)N[C@@H](CO)c9ccc(-c%10scnc%10C)cc9)C(C)C)on8)CC7)CC6)CSc6ccccc6)c(S(=O)(=O)C(F)(F)F)c5)CC4)CC3)c2)c1-c1ccc(F)cc1 |
| 95 | CCn1c(C)c(C(=O)N2CC[C@H](O)C2)c(-c2cc(F)cc(N3CCN(c4ccc(NS(=O)(=O)c5ccc(N[C@H](CCN6CCN(C(=O)NCCCCCC(=O)N[C@H](C(=O)N7C[C@H](O)C[C@H]7C(=O)N[C@@H](C)c7ccc(-c8scnc8C)cc7)C(C)(C)C)CC6)CSc6ccccc6)c(S(=O)(=O)C(F)(F)F)c5)cc4)CC3)c2)c1-c1ccc(F)cc1 |
| 250 | CCn1c(C)c(C(=O)N2C[C@H](OC)[C@@H](F)C2)c(-c2cc(F)cc(N3CCN(c4ccc(NS(=O)(=O)c5ccc(N[C@H](CCN6CCN(C(=O)CCCCCC(=O)N[C@H](C(=O)N7C[C@H](O)C[C@H]7C(=O)N[C@@H](C)c7ccc(-c8scnc8C)cc7)C(C)(C)C)CC6)CSc6ccccc6)c(S(=O)(=O)C(F)(F)F)c5)cc4)CC3)c2)c1-c1ccc(F)cc1 |
| 200 | CCn1c(C)c(C(=O)N2CC[C@@H](F)C2)c(-c2cc(F)cc(N3CCN(c4ccc(NS(=O)(=O)c5ccc(N[C@H](CCN6CCN(C(=O)CCCCCC(=O)N[C@H](C(=O)N7C[C@H](O)C[C@H]7C(=O)N[C@@H](C)c7ccc(-c8scnc8C)cc7)C(C)(C)C)CC6)CSc6ccccc6)c(S(=O)(=O)C(F)(F)F)c5)cc4)CC3)c2)c1-c1ccc(F)cc1 |
